Laboratory results: patent publication US6670364B2, “Antagonists of MCP-1 function and methods of use thereof” (Telik, Inc., priority 2001, dated 2003)

Amino acid sequences for entries named in this document (tags omitted). Residues count along the entry.
UniProt P13500, 24-99 limits assumed: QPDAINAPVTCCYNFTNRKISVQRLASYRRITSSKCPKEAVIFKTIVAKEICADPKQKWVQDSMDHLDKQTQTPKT

Target: hMCP-1 (Homo sapiens, UniProt P13500)
Assay: Inhibition of MCP-1-induced chemotaxis (48-well chamber, Example 21)
Conditions: read-out: IC50 (μM), MCP-1-induced chemotaxis; THP-1 cells, 2.5 nM hMCP-1, 48-well chamber, 2 hr; tested form: hydrochloride
Procedure: A 48-well microchemotaxis chamber with a 5 μm-pore size, PVP-coated polycarbonate filter membrane (Neuro Probe Inc., Cabin John, Md.) was used for testing. Compounds were prepared as 10 mM stock solution in DMSO. THP-1 cells were washed with RPMI 1640 medium supplemented with 0.5% BSA and 25 mM HEPES, pH 7.4, and suspended at a density of 4×10^6 cells/mL in the same medium. A 150 μL aliquot of this suspension was treated with an equal volume of test compound solution and the mixture incubated at 37° C. for 15 min. The lower chamber was loaded with 26 μL of a 2.5 nM solution of hMCP-1 (PeproTech) in medium. The filter membrane was placed over the lower chamber, followed by a silicon rubber gasket and the upper chamber. A 50 μL aliquot of the THP-1 cell suspension containing the test compound was added to the upper chamber and the assembly incubated in a 5% CO2 atmosphere at 37+ C. for 2 hr. The chamber was then disassembled and the cells remaining on the upper surface of the filter were scrapped off with a rubber scrapper. The filter was fixed with methanol, stained with Diff-Quik solution, and mounted on a slide glass. The cells that had migrated across the filter onto the lower surface were then counted by microscopic observation.

Compound | IC50 [µM]
Cc1nn(C)c2ncc(C(=O)NC(=O)Nc3ccc(F)c(C(F)(F)F)c3)c(NC3CCC(N)CC3)c12 (centres unmarked) | 0.4
Cc1nn(C)c2ncc(C(=O)NC(=O)Nc3ccc(F)c(C(F)(F)F)c3)c(N3CCN(CCO)CC3)c12 | 2
Cc1nn(C)c2ncc(C(=O)NC(=O)Nc3ccc(F)c(C(F)(F)F)c3)c(N(C)C3CCN(C)C3)c12 (centres unmarked) | 0.4
Cc1nn(C)c2ncc(C(=O)NC(=O)Nc3ccc(O)c(C(F)(F)F)c3)c(N3CCN(C)CC3)c12 [Compound 87] | 4
Cc1nn(C)c2ncc(C(=O)NC(=O)Nc3ccc(F)c(C(F)(F)F)c3)c(NCC34CCCN3CCC4)c12 | 10
Cc1nn(C)c2ncc(C(=O)NC(=O)Nc3ccc(F)c(C(F)(F)F)c3)c(N3CCN(Cc4ccccc4)CC3)c12 | 2
Cc1nn(C)c2ncc(C(=O)NC(=O)Nc3cccc(-c4nccs4)c3)c(N3CCN(C)CC3)c12 [Compound 78] | 3
Cc1nn(C)c2ncc(C(=O)NC(=O)Nc3cc(O)cc(C(F)(F)F)c3)c(N3CCN(C)CC3)c12 [Compound 89] | 4
Cc1nn(C)c2ncc(C(=O)NC(=O)Nc3ccc(F)c(C(F)(F)F)c3)c(N(C)CCN(C)C)c12 | 2
Cc1nn(C)c2ncc(C(=O)NC(=O)Nc3ccc(F)c(C(F)(F)F)c3)c(N3CCC(N(C)C)C3)c12 (centres unmarked) | 1.2
Cc1nn(C)c2ncc(C(=O)NC(=O)Nc3ccc(F)c(C(F)(F)F)c3)c(NCCCN(C)C)c12 | 10
